# Apparent affinities of Ab-14 variants for a coronavirus HR2 peptide

The measurements come from Li et al. 2023 (doi:10.1038/s41467-023-39022-2) through the FLAb antibody collection.

Target peptide (SARS-CoV-2 spike, HR2 region): PDVDLGDISGINAS

The variants keep the light chain, the linker and the frameworks of Ab-14 (scFv order VH, the linker GGGGSGGGGSGGGGS, VL).
VH: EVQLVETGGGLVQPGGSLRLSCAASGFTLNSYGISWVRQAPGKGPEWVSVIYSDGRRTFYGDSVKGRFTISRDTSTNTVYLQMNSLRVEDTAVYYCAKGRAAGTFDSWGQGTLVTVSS
VL: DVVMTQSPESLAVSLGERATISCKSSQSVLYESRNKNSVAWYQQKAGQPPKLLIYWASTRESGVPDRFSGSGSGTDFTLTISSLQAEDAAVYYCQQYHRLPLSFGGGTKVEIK

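Phage display of a naive human antibody library on the peptide gave the parent. This is the validation round: designs drawn from the data on random variants, tested in the same kind of assay. Group labels follow the data file (Ctrl: baseline library sampled from a position-specific scoring matrix, with some repeated check sequences; GPLM: also part of the Gaussian process libraries; Gibbs: Gibbs sampling; a sequence that several methods proposed may carry one label only). Affinity was read by AlphaSeq, a pooled yeast mating assay with surface-displayed partners. After mating in shaken culture at 30 °C for 16 h, diploids were selected and their barcode pairs sequenced. The ratio of observed to expected reads was calibrated, replicate by replicate, on BCL2-family standards whose Kd was known from biolayer interferometry. Each pool was mated in six replicate cultures.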

Each variant is given by its three heavy chain CDRs, as the data file delimits them; those of the parent are GFTLNSYGIS, VIYSDGRRTFYGDSVK, GRAAGTFDS.
Numbers give log10(Kd / nM), so 0 is 1 nM and 3 is 1 µM. Smaller is tighter.
An entry "n.d." has no value in the source: the pair was not observed among the diploids in that replicate. This suggests poor binding but is not conclusive.
Three control strains display no target. For all heavy chain designs, 1% of the pairings with them gave a signal, with a median of 2.08 and one signal in twenty below 0.84, so weak values seen in few replicates may be background. Also given: how often the same scFv was detected with the empty control strains, with their mean in brackets.
Where one sequence has several entries in the source, the replicates are listed entry by entry, parted by semicolons.
The range of this assay differs from that of the first round, and the authors advise against merging the two.
The parent sequence was in this pool as ten entries: three were never detected, three once, and four in most replicates, with averages from 0.34 to 2.37.
In the paper, a design with two or fewer of six values counts as a poor binder.

CDR-H1,CDR-H2,CDR-H3,group,"replicates, log10 nM",signal with controls
GFTSNSYGIS,VIYSDGRRCSYGDSVK,GRAAGTFDS,Ctrl,n.d. / n.d. / n.d. / n.d. / n.d. / 1.90,0 of 18
GFTANSYGIS,VIYSDGRRTFYGDSVK,GRQAGTFDL,Ctrl,n.d. / n.d. / n.d. / n.d. / n.d. / n.d.,0 of 18
GFTLNSYGIT,VIYSDGRRTFYGPSVK,GRAAGTFDS,Ctrl,n.d. / n.d. / n.d. / n.d. / n.d. / n.d.,0 of 18
GFNLNQYGLS,VIYSDGRRTFYADSVK,GRAAGTFRS,Ctrl,n.d. / n.d. / n.d. / n.d. / n.d. / n.d.,1 of 18 (1.51)
GFCLNSYGIS,VIYSDGRRTFYGDSVK,GEAAGRFDS,Ctrl,n.d. / n.d. / n.d. / n.d. / n.d. / n.d.,0 of 18
GFNLNSYGIS,VIYADGRRTSYGDSVK,GRAAGMDDS,Ctrl,n.d. / n.d. / n.d. / n.d. / n.d. / n.d.,0 of 18
GFTLNSYGIS,VIYSDGRRTFYGDSVR,GRIAGTFSS,Ctrl,0.86 / 1.46 / 1.01 / n.d. / n.d. / 1.32,0 of 18
GFTLNSYGIS,VIYSDGRRTFYHDSVK,RDAAGTFDS,Ctrl,n.d. / n.d. / 1.04 / n.d. / n.d. / n.d.,0 of 18
GFTLNSYGIS,VIYSDGRRTFYGDSVK,GRAKGTFDS,Ctrl,n.d. / n.d. / n.d. / n.d. / n.d. / n.d.,0 of 18
GFTLNSLSIS,VIYSDGRRTFYGDSVK,GHTAGTFDS,Ctrl,-0.13 / -0.50 / -0.16 / -0.24 / -0.15 / -0.32,0 of 18
GFTLNSYGIS,VIYSDGRRTFYGDSVK,GKAAGAFDS,Ctrl,n.d. / n.d. / n.d. / n.d. / n.d. / n.d.,0 of 18
GFTLDSYGIS,VIYSDGRRTFYGDSVA,GRAAKTFDS,Ctrl,n.d. / n.d. / n.d. / n.d. / n.d. / n.d.,0 of 18
GFDLNSYGIS,VIYSDGRRTFYGDSVR,GSAAGTFES,Ctrl,0.82 / 1.66 / 1.67 / 0.34 / 0.58 / 2.02,0 of 18
GFSLNSFGIS,VIYSDGRRTFYGDSVK,GTAAGTFDS,Ctrl,0.72 / 0.68 / 1.01 / 0.69 / 0.86 / 1.42,0 of 18
GFTLNSYGIS,VIYADGRRTFYGDSVK,GVDAVTFDS,Ctrl,n.d. / n.d. / n.d. / n.d. / n.d. / n.d.,0 of 18
GFTLNSYGIS,VIYSDGRRTFYGDSVK,GVAAGTFDS,Ctrl,n.d. / 1.24 / 1.21 / 3.22 / n.d. / 1.20,0 of 18
GFTLNSYGIS,VIYSDGRRTFYSDSVK,GRAADTADS,Ctrl,n.d. / n.d. / n.d. / n.d. / n.d. / n.d.,0 of 18
GETLNSYGIS,VIYSDGRRTFYIDSVK,GRAAGTFES,Ctrl,1.82 / n.d. / n.d. / n.d. / n.d. / n.d.,1 of 18 (0.57)
GFTLNSYGIS,VIYSDGRRTGYDGSVK,GRWAGAFNS,Ctrl,n.d. / n.d. / n.d. / n.d. / n.d. / n.d.,0 of 18
GFTLNSYGIS,VIYSDGRRTFYGDSVK,GQIAGTFDS,Ctrl+GPLM_Gibbs,1.42 / 1.01 / 1.35 / 1.00 / 2.18 / 1.03; 1.18 / 0.96 / 1.54 / 1.67 / 1.79 / n.d.,0 of 36
KFTPNEYGIS,VIYSDGRRTFYQGSVK,GRAAGTFDS,Ctrl,n.d. / n.d. / n.d. / n.d. / 1.57 / n.d.,0 of 18
GFTLNSYGIS,VIYSDGRRTFYGDAIK,GRAAGTFDL,Ctrl,n.d. / n.d. / n.d. / n.d. / n.d. / n.d.,0 of 18
GFTLNSYGIS,VIYADGRRTFYIDSVK,GRAAGGFDS,Ctrl,n.d. / n.d. / n.d. / n.d. / n.d. / n.d.,0 of 18
GTTLNSYGIS,VIYADGRRTFYGDSVK,GRAKGTFDS,Ctrl,n.d. / n.d. / n.d. / n.d. / n.d. / n.d.,1 of 18 (1.53)
GFCLNSYGIS,VIYSDGRRTFYSDSVK,GRAAGTFTS,Ctrl,n.d. / n.d. / n.d. / n.d. / n.d. / n.d.,0 of 18
GFTLNQYGIS,VIYSDGRRTFYGDSVK,GKAAGTFDS,Ctrl,0.99 / 0.95 / 0.95 / 0.35 / 0.84 / 3.40,0 of 18
GFPLNDYGIS,VIYSDGRRTFYGDQVK,GGAAGTFDS,Ctrl,n.d. / n.d. / 1.18 / n.d. / n.d. / n.d.,0 of 18
GFTNNDYGIS,VIYSDGRRTFYGDSVK,GRAAGTFDS,Ctrl,n.d. / n.d. / n.d. / n.d. / n.d. / n.d.,0 of 18
GFTLNEYGIS,VIYSDGRRTFYGDSVK,GRAAGTFSS,Ctrl,n.d. / n.d. / n.d. / n.d. / n.d. / n.d.,0 of 18
GFELNSYGIS,VIYSDGRRAMYSDSVK,GQAAGTFTS,Ctrl,n.d. / n.d. / n.d. / n.d. / n.d. / n.d.,0 of 18
GFTINSYGIS,VIYSDGRRTFYGDSVK,GRAAGTFDV,Ctrl,n.d. / n.d. / 1.73 / 2.02 / 2.82 / n.d.,1 of 18 (2.17)
GFTLNDYGIS,VIYSDGKRTFYGDSVK,GRAAGTFDS,Ctrl,0.99 / 0.85 / 0.94 / 0.59 / 0.49 / 0.71,0 of 18
GFTLNEYGIS,VIYSDGRRTFYVDRVK,RQAAGPFDS,Ctrl,n.d. / n.d. / n.d. / n.d. / n.d. / n.d.,0 of 18
GFTVNSYGIS,VIYSDGRRTFYGDSVK,GKAAGTFDS,Ctrl,n.d. / 2.21 / n.d. / 1.81 / n.d. / n.d.,0 of 18
GFTLNTYGIS,VIYADGRRTFYTDSVK,GRAAGTFRL,Ctrl,2.21 / n.d. / n.d. / 2.53 / n.d. / n.d.,0 of 18
GFTLNSYGIS,VIYSDGVRTFYGDSVK,GKAAGYFRS,Ctrl,n.d. / n.d. / n.d. / n.d. / n.d. / n.d.,0 of 18
GFTLNSYGIS,VIYSDGRRTFYGDSVK,GENAGTFDL,Ctrl,1.92 / 1.74 / 2.01 / 1.65 / 1.53 / 1.47,1 of 18 (1.96)
GFDLNSYGIS,VIYSDGRRTFYGDSVK,GRYAGTFDQ,Ctrl,2.61 / 2.51 / 1.80 / 2.98 / 2.35 / n.d.,0 of 18
GFTLESYGIS,VIYSDGLRTFYGDSVK,GRAAGTFDS,Ctrl,n.d. / 1.21 / n.d. / 0.60 / 1.77 / n.d.,0 of 18
GFDLNSYGYS,VIYSDGRRTFYGDSVE,GGAAGTFDS,Ctrl,n.d. / n.d. / n.d. / n.d. / n.d. / n.d.,1 of 18 (1.66)
GFTLNSYGIS,VIYSDGRRTFYSDSVK,IRAAGTMDS,Ctrl,n.d. / n.d. / n.d. / n.d. / n.d. / n.d.,0 of 18